TrxR1 substrate = is turned over as a substrate by rat TrxR1. Potency, µM (top dose mostly 114 µM). purified TrxR1 substrate turnover, NADPH consumption readout. O89049. 390,000 compounds, 0.01% hits; further: nearly all actives have a fitted effect of over 50% in size
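Rat TrxR1, dispensed at 90 nM, was prereduced with 400 uM NADPH (final) for 5 min at ~22 deg C, then incubated with compound 15 min before 400 uM selenite. A first-read NADPH fluorescence drop versus no-compound background flagged substrates.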
rTrxR1 inhibitor = inhibitors of rat thioredoxin reductase 1 | 390,000 compounds, 1% hits | recombinant rTrxR1, NADPH fluorescence consumption, selenite substrate | AID 588453 | O89049 | Potency, µM (series often up to 114 µM), hits mostly inhibitors; further: nearly all actives have a fitted effect of over 65% in size
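Rat TrxR1 (90 nM in the dispensed reagent) was pre-reduced with 400 uM NADPH for 5 min at room temperature, then incubated with compound for 15 min. After 400 uM selenite was added, NADPH fluorescence (Ex 340/Em 450 nm) was followed for 8 min.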
GALK inh = inhibitors of human galactokinase | P51570 | Purified GALK, Kinase-Glo residual ATP luminescence | Potency, µM (doses to about 57.5 µM), most hits filed as inhibitors | 270,000 compounds, 0.007% hits | AID 1868
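Galactose (100 uM) and ATP (35 uM) were turned over by 5 nM GALK for 1 h at RT. Kinase-Glo Plus then converted the remaining ATP into a luminescent signal.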
PINK1 modulator = changes PINK1 expression. PINK1 immunofluorescence, high-content cytometry, 24 h. Potency, µM (titrated, usually from 76.6 µM), actives largely listed as activators. 410,000 compounds, 0.2% hits; active means well fitted activation curve with a large enough effect; inconclusive means small, poorly fitted or top-dose-only effect; cell line not stated here; further: nearly all actives have a fitted effect of over 65% in size
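PINK1 protein level read as immunofluorescence by microplate cytometer in a fixed, stained stable cell line after 24 h exposure to five compound concentrations, with CCCP as control.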
miR-21 FLuc = miR-21 reporter, rising signal | 340,000 tested, under 10 active | AID 2288 | HeLa miR-21 FLuc reporter, luciferase, 48 h | Potency, µM (titrated, usually from 38.3 µM); active = well fitted rising curve with a large enough effect; inconclusive = small, poorly fitted or top-dose-only effect; inactive = no such curve, though single readings can be large or run the other way;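 further: miR-21 action dims this reporter so a rising signal means less miR-21 action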
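Using DMEM plus 10% FBS, HeLa miR-21-FLuc cells are incubated with test compounds (final up to about 40uM) for 48 hours; firefly luciferase signal is then imaged following reagent-mediated lysis.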
Of the large screens only hits and unclear results are named; the others gave an inactive call. An excerpt weighted towards active compounds, which were near 1.1% of everything screened. Unless noted, the call rests on the fitted dose curve; in most records, active means well fitted curve in the direction sought with a large enough effect; inconclusive means small, poorly fitted or top-dose-only effect, or another doubt; inactive means no such curve, though single readings can be large; an effect the other way counts as inactive or inconclusive.

Cc1ccccc1C1(CC(=O)N2CCCC2c2nccs2)CC(=O)N(C2CCCC2)C1=O (stereo not drawn)	none (no result: TrxR1 substrate, rTrxR1 inhibitor, GALK inh, miR-21 FLuc)
CSc1cccc(NS(=O)(=O)c2cn(C)cn2)c1	rTrxR1 inhibitor 50µM
CCn1c(=O)c2sccc2n2c(CCC(=O)Nc3ccc(OC)cc3OC)nnc12	none (no result: GALK inh)
Clc1cccc[n+]1CCCCCC[n+]1ccccc1Cl	rTrxR1 inhibitor 56µM (no result: GALK inh, PINK1 modulator, miR-21 FLuc)
Brc1cccc[n+]1CCCCCC[n+]1ccccc1Br	rTrxR1 inhibitor inconclusive (no result: GALK inh, miR-21 FLuc)
COCCC1CCCCN1Cc1nc(N2CCCC2)c2cc(OC)c(OC)cc2n1 (stereo not drawn)	none (no result: TrxR1 substrate, rTrxR1 inhibitor, GALK inh, miR-21 FLuc)
COc1ccc(OC)c(CCNC(=O)c2cc3c(=O)n(C)c4ccccc4c3n2C)c1	none (no result: GALK inh)
CC(=O)N/C(=C/c1ccccc1)c1ccncc1	none (no result: GALK inh, miR-21 FLuc)
CCOC(=O)C1Nc2ccc(Br)cc2C2C=CCC12 (stereo not drawn)	rTrxR1 inhibitor 32µM
CCOC(=O)C1Nc2ccc(C)cc2C2C=CCC12 (stereo not drawn)	rTrxR1 inhibitor 5.6µM (no result: GALK inh, miR-21 FLuc)
CCOC(=O)c1ccc2c(c1)C1C=CCC1C(C(=O)OCC)N2 (stereo not drawn)	rTrxR1 inhibitor 40µM
O=C(O)C1Nc2ccc(Br)cc2C2C=CCC12 (stereo not drawn)	rTrxR1 inhibitor 20µM
Cc1ccc(NC(=O)CN2C(=O)COc3ccc(S(=O)(=O)N4CCCCCC4)cc32)c(C)c1	none (no result: GALK inh)
CC1C/C(=C\c2cccnc2)C(=O)/C(=C/c2cccnc2)C1 (stereo not drawn)	rTrxR1 inhibitor 50µM, miR-21 FLuc inconclusive
Cc1ccc(N2C(=O)CS(=O)(=O)CC2=O)cc1	rTrxR1 inhibitor 4.5µM
COc1ccc(-c2cc3ccc(O)c(CN4CCC(C)CC4)c3oc2=O)cc1	none (no result: GALK inh)
C=CCSc1nnc(N2C(=O)C(O)=C(C(=O)c3ccco3)C2c2ccccc2F)s1 (stereo not drawn)	rTrxR1 inhibitor 50µM
CCCSc1nnc(N2C(=O)C(O)=C(C(=O)c3ccco3)C2c2ccccc2F)s1 (stereo not drawn)	none
CSc1nnc(N2C(=O)C(O)=C(C(=O)c3ccco3)C2c2ccccc2F)s1 (stereo not drawn)	rTrxR1 inhibitor 7.9µM
Cc1ccc(O)c(NC2=C(Cl)C(=O)N(Cc3ccccc3)C2=O)c1	rTrxR1 inhibitor 10µM
O=C1C(Cl)=C(Nc2ccccc2O)C(=O)N1c1ccccc1	rTrxR1 inhibitor 45µM
COc1ccc(N2CCN(c3ccc(NC(=O)/C=C\C(=O)O)cc3)CC2)cc1	none
O=C(O)/C=C/C(=O)Nc1ccc(N2CCOCC2)nc1N1CCOCC1	rTrxR1 inhibitor 16µM
O=C1c2ccccc2NC(c2ccc(-c3cccc(F)c3)o2)N1O (stereo not drawn)	none (no result: GALK inh, miR-21 FLuc)
N#Cc1ccc(-c2ccc(C3Nc4ccccc4C(=O)N3O)o2)cc1 (stereo not drawn)	rTrxR1 inhibitor 7.1µM (no result: GALK inh, miR-21 FLuc)
O=C(/N=C1\NC(=O)C(F)(C(F)(F)F)S1)NC1CCCCC1 (stereo not drawn)	rTrxR1 inhibitor 25µM
O=C(/C(Br)=C/Nc1cc(Cl)ccc1Cl)C(F)(F)F	rTrxR1 inhibitor 40µM
O=C(Nc1cc(Cl)ccc1Cl)N1CCCC1	none
O=C(c1cnccn1)N1CCC[C@@]2(CCN(Cc3nccs3)C2)C1	none (no result: TrxR1 substrate, rTrxR1 inhibitor, GALK inh, miR-21 FLuc)
COc1cccc(-c2nc3cc4c(cc3cc2CN(C(=O)c2cc(C)nn2C)C2CC2)CCC4)c1OC	none (no result: TrxR1 substrate, rTrxR1 inhibitor, GALK inh, miR-21 FLuc)
Cc1cc(=O)[nH]c(N/N=C/C=C/c2ccccc2)n1	none
Cc1cc(=O)[nH]c(N/N=C2/CCCC/C2=C\c2ccccc2)n1	rTrxR1 inhibitor 40µM
O=C(CCc1ccc(O)cc1)c1c(O)cc(O)cc1O	rTrxR1 inhibitor 10µM
CC(NC(=O)/C=C/c1ccco1)c1nc2ccccc2n1Cc1ccccc1F (stereo not drawn)	rTrxR1 inhibitor 50µM
CC(NC(=O)/C=C/c1ccco1)c1nc2ccccc2n1Cc1c(Cl)cccc1Cl (stereo not drawn)	rTrxR1 inhibitor inconclusive
O=C1C2=C(Nc3ccccc3SC2c2ccccc2C(F)(F)F)c2ccccc21 (stereo not drawn)	PINK1 modulator 13µM, miR-21 FLuc inconclusive (no result: GALK inh)
Cc1cc(C)cc(-n2ccnc2SCC(=O)Nc2ccccc2F)c1	none (no result: GALK inh)
O=C(COc1ccc2c(-c3ccccc3)cc(=O)oc2c1)NCC1CCC(C(=O)O)CC1 (stereo not drawn)	none (no result: GALK inh)
